Our source for the ED50 values is ChEMBL document CHEMBL1121425, “4-Amino-4-arylcyclohexanones and their derivatives, a novel class of analgesics. 1. Modification of the aryl ring” (1980).

Structures are written as SMILES.

Assay [1] is filed under the species Mus musculus. Kind of assay: Tested for sedation using inclined screen test in mice.
Assay [2] relates to Mus musculus. Nature of the assay: Tested for narcotic antagonistic property using tail-flick procedure in mice after giving subcutaneous dose of 6.3 mg/kg of morphine sulphate.
The species named for assay [3] is Mus musculus. Kind of assay: Tested for analgesic activity using tail flick assay in mice. (In hot-plate and tail-flick tests a longer latency is read as antinociception.)
The species entered for assay [4] is Mus musculus. Nature of the assay: Tested for analgesic activity using tail pinch assay in mice.
For assay [5], the species on record is Mus musculus. Nature of the assay: Tested for analgesic activity using HCl writhe assay in mice in mice.

Consider `CN(C)C1(c2ccccc2Cl)CCC2(CC1)OCCO2`, for which the ED50 in the assay filed under Mus musculus [1] and with Mus musculus [2] was over 100 mg/kg in each case.

Take `CN(C)C1(c2ccc(F)cc2)CCC(=O)CC1`: the ED50 in the assay listed under Mus musculus [1] and in the assay with Mus musculus [2] was over 50 mg/kg in each case.

For `CN(C)C1(c2cccs2)CCC(=O)CC1`, the ED50 in the assay listed under Mus musculus [1] and with Mus musculus [2] was over 100 mg/kg each time.

For `CN(C)C1(c2ccc(C(C)(C)C)cc2)CCC2(CC1)OCCO2`, the ED50 in the assay listed under Mus musculus [1] and with Mus musculus [2] was over 100 mg/kg throughout.

For the compound `Cc1ccccc1C1(N(C)C)CCC2(CC1)OCCO2`, the 50% effective dose (ED50) in the assay filed under Mus musculus [1] and in the assay on Mus musculus [2] was over 100 mg/kg in each case.

In the case of `COc1cccc(C2(N(C)C)CCC(=O)CC2)c1`, the ED50 in the assay filed under Mus musculus [1] and in the assay on Mus musculus [2] was over 100 mg/kg in each case.

`CN(C)C1(c2cccc3ccccc23)CCC2(CC1)OCCO2`: the 50% effective dose (ED50) in the assay listed under Mus musculus [1] and with Mus musculus [2] was over 100 mg/kg in each case.

Take `CCOC(=O)C1(c2ccccc2)CCN(C)CC1.Cl`: the ED50 – broadly, the dose that gives a 50% effect, or the effect in half of the subjects – in the assay filed under Mus musculus [1] is over 100 mg/kg; in the assay on Mus musculus [2], over 100 mg/kg; in the assay filed under Mus musculus [3], 22 mg/kg; in the assay listed under Mus musculus [4], 29 mg/kg; in the assay listed under Mus musculus [5] it was 15 mg/kg.

As to `COc1ccc(C2(N(C)C)CCC(=O)CC2)cc1OC`, the ED50 in the assay listed under Mus musculus [1] and with Mus musculus [2] was over 25 mg/kg in each case.

On to `Cc1ccc(C2(N(C)C)CCC(=O)CC2)cc1`, for which the 50% effective dose (ED50) in the assay filed under Mus musculus [1] and in the assay on Mus musculus [2] was over 50 mg/kg each time.

For `CN(C)C1(c2ccc(Br)cc2)CCC2(CC1)OCCO2`, the median effective dose (ED50) in the assay listed under Mus musculus [1] and in the assay with Mus musculus [2] was over 100 mg/kg throughout.

`CN(C)C1(c2ccc(Cl)cc2Cl)CCC2(CC1)OCCO2`: the ED50 in the assay listed under Mus musculus [1] and in the assay with Mus musculus [2] was over 100 mg/kg throughout.

With `CN(C)C1(c2cccc(Cl)c2)CCC2(CC1)OCCO2`, the median effective dose (ED50) in the assay listed under Mus musculus [1] and in the assay with Mus musculus [2] was over 100 mg/kg throughout.

Turning to `CN(C)C1(c2ccccc2)CCC(=O)CC1`, the 50% effective dose (ED50) in the assay filed under Mus musculus [1] and in the assay with Mus musculus [2] was over 100 mg/kg throughout.

Consider `COc1ccc(C2(N(C)C)CCC3(CC2)OCCO3)cc1OC`, for which the 50% effective dose (ED50) in the assay filed under Mus musculus [1] and in the assay on Mus musculus [2] was over 100 mg/kg in each case.

As to `CN(C)C1(c2ccc(Cl)cc2)CCC(=O)CC1`, the ED50 in the assay filed under Mus musculus [1] and with Mus musculus [2] was over 25 mg/kg throughout.

With `CN(C)C1(c2cccs2)CCC2(CC1)OCCO2`, the 50% effective dose (ED50) in the assay listed under Mus musculus [1] and in the assay with Mus musculus [2] was over 100 mg/kg each time.

Consider `CN(C)C1(c2ccc(Cl)cc2)CCC2(CC1)OCCO2`, for which the median effective dose (ED50) in the assay filed under Mus musculus [1] and with Mus musculus [2] was over 25 mg/kg throughout.

With `COc1ccc(C2(N(C)C)CCC(=O)CC2)cc1`, the ED50 in the assay filed under Mus musculus [1] and in the assay on Mus musculus [2] was over 25 mg/kg in each case.

With `CN(C)C1(c2cccc3ccccc23)CCC(=O)CC1`, the ED50 in the assay listed under Mus musculus [1] and with Mus musculus [2] was over 100 mg/kg throughout.

Consider `CN(C)C1(c2ccc(F)cc2)CCC2(CC1)OCCO2`, for which the median effective dose (ED50) in the assay listed under Mus musculus [1] and with Mus musculus [2] was over 25 mg/kg in each case.

For the compound `CN(C)C1(c2cccc(Cl)c2)CCC(=O)CC1`, the ED50 in the assay filed under Mus musculus [1] and in the assay on Mus musculus [2] was over 100 mg/kg in each case.

As to `CN(C)C1(c2ccc(Cl)c(Cl)c2)CCC(=O)CC1`, the median effective dose (ED50) in the assay filed under Mus musculus [1] and in the assay on Mus musculus [2] was over 100 mg/kg in each case.

Consider `CN(C)C1(c2ccccc2Cl)CCC(=O)CC1`, for which the ED50 in the assay filed under Mus musculus [1] and in the assay with Mus musculus [2] was over 100 mg/kg throughout.

Consider `Cc1cccc(C2(N(C)C)CCC(=O)CC2)c1`, for which the ED50 in the assay listed under Mus musculus [1] and with Mus musculus [2] was over 100 mg/kg each time.

As for `COc1cccc(C2(N(C)C)CCC3(CC2)OCCO3)c1`, the 50% effective dose (ED50) in the assay filed under Mus musculus [1] and in the assay on Mus musculus [2] was over 100 mg/kg each time.

As for `CN(C)C1(c2ccc(Cl)c(Cl)c2)CCC2(CC1)OCCO2`, the ED50 in the assay filed under Mus musculus [1] and in the assay with Mus musculus [2] was over 100 mg/kg each time.

In the case of `Cc1ccccc1C1(N(C)C)CCC(=O)CC1`, the ED50 in the assay listed under Mus musculus [1] and in the assay with Mus musculus [2] was over 100 mg/kg throughout.

As for `Cc1cccc(C2(N(C)C)CCC3(CC2)OCCO3)c1`, the 50% effective dose (ED50) in the assay listed under Mus musculus [1] and in the assay with Mus musculus [2] was over 100 mg/kg in each case.

Take `CN(C)C1(c2ccc(Cl)cc2Cl)CCC(=O)CC1`: the ED50 in the assay filed under Mus musculus [1] and in the assay on Mus musculus [2] was over 100 mg/kg throughout.

`CN(C)C1(c2ccccc2)CCC2(CC1)OCCO2`: the ED50 in the assay listed under Mus musculus [1] and in the assay with Mus musculus [2] was over 100 mg/kg each time.

Consider `Cc1ccc(C2(N(C)C)CCC3(CC2)OCCO3)cc1`, for which the ED50 in the assay filed under Mus musculus [1] and in the assay on Mus musculus [2] was over 25 mg/kg throughout.

In the case of `CN(C)C1(c2ccc(C(C)(C)C)cc2)CCC(=O)CC1`, the ED50 in the assay filed under Mus musculus [1] and in the assay on Mus musculus [2] was over 100 mg/kg throughout.
